# Measured affinities in a library of Ab-91 heavy chain variants

The target is the same throughout: PDVDLGDISGINAS, from the HR2 region of SARS-CoV-2 spike.

The variants keep the light chain, the linker and the frameworks of Ab-91 (scFv order VL, a 15-residue (Gly4Ser)3 linker, VH).
VL: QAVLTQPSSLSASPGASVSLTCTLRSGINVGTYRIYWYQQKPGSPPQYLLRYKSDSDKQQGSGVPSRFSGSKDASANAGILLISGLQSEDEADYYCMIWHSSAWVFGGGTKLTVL
VH: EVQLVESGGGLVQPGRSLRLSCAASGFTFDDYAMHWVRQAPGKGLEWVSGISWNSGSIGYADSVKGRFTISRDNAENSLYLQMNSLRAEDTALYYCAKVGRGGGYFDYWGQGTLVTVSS

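Phage display of a naive human antibody library on the peptide gave the parent. In library AAYL51, one, two or three CDR residues were substituted; doubles and triples were drawn at random. Affinity was read by AlphaSeq, a pooled yeast mating assay with surface-displayed partners. The frequency of each diploid, read from paired DNA barcodes, reflects how well the two displayed proteins bind. Scores were corrected for input abundance and mapped to Kd with protein pairs of known affinity run in the same pool. Each pool was mated in three replicate cultures.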

Positions count from residue 1 of the parent VH; G104K puts K in place of G. The read-out is the apparent dissociation constant on a log10 scale (nM): the lower, the stronger. The mean shown is taken over the replicates in which the pair was detected. An entry "nd" has no value in the source: the pair was not observed among the diploids in any replicate. This suggests poor binding but is not conclusive. Order: sorted from the lowest average up, undetected variants last. In this assay the parent's reference entry averaged 1.86; its copy inside this library read 0.88. Background: pairings of library AAYL51 with three empty control strains gave a value in 21% of cases (median 4.54, 5th percentile 3.26). Values in that range, when seen in few replicates, are hard to tell from nonspecific mating. Also given: how often the same scFv was detected with the empty control strains.

| # | log10 Kd (nM), mean | seen in | signal with controls | changes |
|---|---|---|---|---|
| 1 | 0.83 | 3 of 3 | 9 of 9 | G104K/Y105S/F106V |
| 2 | 1.02 | 3 of 3 | 0 of 9 | W53F/N54E/A61S |
| 3 | 1.13 | 3 of 3 | 4 of 9 | T28I/Y32T/D107W |
| 4 | 1.75 | 3 of 3 | 1 of 9 | D31R/D62M/V64L |
| 5 | 2.40 | 3 of 3 | 4 of 9 | F29H/A61S/S63R |
| 6 | 2.64 | 3 of 3 | 7 of 9 | D30V/R101Q/Y105K |
| 7 | 2.84 | 3 of 3 | 4 of 9 | W53R/V64F/G103W |
| 8 | 3.07 | 2 of 3 | 1 of 9 | G56V/A61Y |
| 9 | 3.13 | 3 of 3 | 1 of 9 | V64R/K65I/R101V |
| 10 | 3.16 | 3 of 3 | 1 of 9 | S63W/K65W/Y108G |
| 11 | 3.20 | 1 of 3 | 1 of 9 | I51T/Y105P/Y108A |
| 12 | 3.29 | 1 of 3 | 2 of 9 | I51G/S55F/G59E |
| 13 | 3.37 | 2 of 3 | 1 of 9 | F27T/Y105T/F106D |
| 14 | 3.41 | 1 of 3 | 1 of 9 | D62C/F106N/D107V |
| 15 | 3.95 | 1 of 3 | 0 of 9 | F27K/M34D/D62S |
| 16 | 3.98 | 1 of 3 | 3 of 9 | F29G/A33Y/D62K |
| 17 | 4.04 | 1 of 3 | 0 of 9 | W53K/S55P/F106K |
| 18 | 4.16 | 1 of 3 | 1 of 9 | F29I/I58T/G102K |
| 19 | 4.17 | 2 of 3 | 0 of 9 | Y32P/W53G/G104E |
| 20 | 4.36 | 2 of 3 | 2 of 9 | A33P/G50H/S55G |
| 21 | 4.48 | 2 of 3 | 3 of 9 | D30W/S52H/G56H |
| 22 | 4.56 | 2 of 3 | 2 of 9 | Y60N/K65N/D107G |
| 23 | 4.62 | 3 of 3 | 6 of 9 | F27P/Y60P/V99T |
| 24 | 4.63 | 1 of 3 | 1 of 9 | S55M/G100I |
| 25 | 4.64 | 1 of 3 | 3 of 9 | F29R/D31R/N54I |
| 26 | 4.66 | 1 of 3 | 4 of 9 | A33N/G56H/V64T |
| 27 | 4.66 | 1 of 3 | 1 of 9 | S55C/D62H/R101C |
| 28 | 4.68 | 2 of 3 | 5 of 9 | G26A/H35L/I51K |
| 29 | 4.74 | 3 of 3 | 7 of 9 | D30W/K65L/D107T |
| 30 | 4.77 | 1 of 3 | 2 of 9 | F29C/G102F/D107C |
| 31 | 4.79 | 3 of 3 | 6 of 9 | F27A/S55V/Y108C |
| 32 | 4.88 | 1 of 3 | 2 of 9 | H35M/G59I/A61W |
| 33 | 5.00 | 2 of 3 | 7 of 9 | T28Y/M34F/D107H |
| 34 | 5.05 | 3 of 3 | 6 of 9 | D31G/Y32P/H35S |
| 35 | 5.06 | 1 of 3 | 7 of 9 | A33T/W53E/S55F |
| 36 | 5.19 | 2 of 3 | 6 of 9 | G50M/N54S/F106P |
| 37 | 5.32 | 3 of 3 | 3 of 9 | G50W/N54Q/S55F |
| 38 | 5.42 | 1 of 3 | 5 of 9 | H35G/G59T/G104K |
| 39 | 5.43 | 1 of 3 | 3 of 9 | D31T/G100K/G104I |
| 40 | 5.56 | 1 of 3 | 1 of 9 | M34R/S63W/G100Q |
| 41 | 5.80 | 1 of 3 | 0 of 9 | Y105H/D107T |
| 42 | 6.14 | 1 of 3 | 2 of 9 | H35L/I51Y/G102P |
| 43 | nd | 0 of 3 | 0 of 9 | F29M/I58Y/V99A |
| 44 | nd | 0 of 3 | 0 of 9 | T28C/S55P/A61F |
| 45 | nd | 0 of 3 | 0 of 9 | S52V/D62V/F106N |
| 46 | nd | 0 of 3 | 2 of 9 | F27T/G50P/I58R |
| 47 | nd | 0 of 3 | 0 of 9 | F29E/S57R/F106Q |
| 48 | nd | 0 of 3 | 0 of 9 | K65S/G103K |
| 49 | nd | 0 of 3 | 2 of 9 | T28P/G50P/I51S |
| 50 | nd | 0 of 3 | 0 of 9 | A33L/D62V/G104H |
| 51 | nd | 0 of 3 | 0 of 9 | G26V/I51M/S52L |
| 52 | nd | 0 of 3 | 1 of 9 | N54K/G100R/G102I |
| 53 | nd | 0 of 3 | 2 of 9 | D30T/I51L/F106Q |
| 54 | nd | 0 of 3 | 0 of 9 | G26I/F27T/G100A |
| 55 | nd | 0 of 3 | 0 of 9 | D31L/N54M |
| 56 | nd | 0 of 3 | 1 of 9 | Y32F/S52H/Y105F |
| 57 | nd | 0 of 3 | 0 of 9 | F29G/V64G/D107I |
| 58 | nd | 0 of 3 | 0 of 9 | D31P/H35G/G56H |
| 59 | nd | 0 of 3 | 0 of 9 | V99R/R101M/G102M |
| 60 | nd | 0 of 3 | 1 of 9 | W53Q/V64T/Y105E |
| 61 | nd | 0 of 3 | 0 of 9 | D30E/V99F/D107F |
| 62 | nd | 0 of 3 | 1 of 9 | F29K/K65A/G102M |
| 63 | nd | 0 of 3 | 0 of 9 | N54G/R101C |
| 64 | nd | 0 of 3 | 0 of 9 | G56P/G100W/Y108A |
| 65 | nd | 0 of 3 | 1 of 9 | A33W/G50A/V64D |
| 66 | nd | 0 of 3 | 0 of 9 | S52K/W53A/D107H |
| 67 | nd | 0 of 3 | 2 of 9 | D31P/D62N/K65D |
| 68 | nd | 0 of 3 | 0 of 9 | G50W/G56E |

Extract of 7 entries:

| changes | log10 Kd (nM), mean | seen in | signal with controls |
|---|---|---|---|
| Y105H/D107T | 5.80 | 1 of 3 | 0 of 9 |
| D31T/G100K/G104I | 5.43 | 1 of 3 | 3 of 9 |
| I51T/Y105P/Y108A | 3.20 | 1 of 3 | 1 of 9 |
| G26A/H35L/I51K | 4.68 | 2 of 3 | 5 of 9 |
| A33P/G50H/S55G | 4.36 | 2 of 3 | 2 of 9 |
| A33W/G50A/V64D | nd | 0 of 3 | 1 of 9 |
| F29K/K65A/G102M | nd | 0 of 3 | 1 of 9 |

Values reported by Engelhart et al. 2022, doi:10.1038/s41597-022-01779-4 (FLAb copy).